Experimental data taken from ChEMBL document CHEMBL4431352, “Structure-activity relationship of Garcinia xanthones analogues: Potent Hsp90 inhibitors with cytotoxicity and antiangiogenesis activity” (Bioorg Med Chem, 2016).

How the values were obtained:
[1] = target: T1, Heat shock protein HSP 90-alpha (Homo sapiens, UniProt P07900); assay: Binding affinity to human recombinant full length biotinylated Hsp90alpha assessed as association constant by biolayer interferometric analysis
[2] = target: T1, Heat shock protein HSP 90-alpha; assay: Binding affinity to human recombinant full length biotinylated Hsp90alpha assessed as dissociation constant by biolayer interferometric analysis

Compound: C/C(=C\CC12OCC3CC(C=C4C(=O)c5c(O)cccc5OC431)C2=O)CO (configuration not stated)
- K [1]: 317 M⁻¹ s⁻¹
- K [2]: 1.21 ×10⁻² /s
